Among the data in patent US10174016B2 (BAYER AKTIENGESELLSCHAFT, priority 2014, dated 2019) are IC50 values, retold here.

Amino acid sequences for entries named in this document (tags omitted). A change or cut given only in a name is not applied to a line headed by its entry.
UniProt P56373: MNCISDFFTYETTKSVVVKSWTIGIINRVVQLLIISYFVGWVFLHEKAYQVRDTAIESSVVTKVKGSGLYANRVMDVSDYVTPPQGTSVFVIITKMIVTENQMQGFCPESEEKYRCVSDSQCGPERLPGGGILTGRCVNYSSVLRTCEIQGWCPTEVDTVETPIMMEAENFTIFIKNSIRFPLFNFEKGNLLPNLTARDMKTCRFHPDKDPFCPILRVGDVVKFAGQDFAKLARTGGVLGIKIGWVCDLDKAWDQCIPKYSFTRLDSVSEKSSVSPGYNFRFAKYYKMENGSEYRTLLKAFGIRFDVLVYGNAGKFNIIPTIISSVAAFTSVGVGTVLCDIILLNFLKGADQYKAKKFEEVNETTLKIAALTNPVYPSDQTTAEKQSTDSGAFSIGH
UniProt Q9UBL9: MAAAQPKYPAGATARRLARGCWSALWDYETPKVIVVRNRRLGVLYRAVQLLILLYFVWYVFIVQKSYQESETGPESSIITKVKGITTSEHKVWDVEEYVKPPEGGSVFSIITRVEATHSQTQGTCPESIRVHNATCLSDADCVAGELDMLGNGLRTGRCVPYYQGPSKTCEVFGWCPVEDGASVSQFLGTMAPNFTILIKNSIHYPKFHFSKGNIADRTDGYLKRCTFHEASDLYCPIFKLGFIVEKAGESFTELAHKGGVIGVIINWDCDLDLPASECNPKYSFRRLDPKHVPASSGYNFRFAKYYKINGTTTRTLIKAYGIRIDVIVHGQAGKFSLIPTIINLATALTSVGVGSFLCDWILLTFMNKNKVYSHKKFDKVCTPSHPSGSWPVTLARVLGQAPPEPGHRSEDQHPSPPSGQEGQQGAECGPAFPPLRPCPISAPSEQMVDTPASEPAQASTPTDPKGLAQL

The target in the first assay is human P2X3 receptor (Homo sapiens (Human), UniProt P56373).
Test: not given
The settings on record: hP2X3 IC50 (nM).
Turning to `Cc1cnc(-c2cc(OC(C)C(C)O)cc(C(=O)N[C@H](C)c3ccc(C(F)(F)F)nn3)c2)s1` (single isomer, unassigned) [Example 231], the IC50 was 6 nM.
Consider `Cc1cnc(-c2cc(OC(C)C(C)O)cc(C(=O)N[C@H](C)c3cnc(C(F)(F)F)nc3)c2)s1` (single isomer, unassigned) [Example 162], for which the IC50 stood at 5 nM.

The assay is the same for the next values; noted with them: hP2X3 IC50 (nM), human P2X3, FLIPR calcium assay, agonist α,β-Me-ATP.
Take `Cc1cnc(-c2cc(O[C@H]3CCOC3)cc(C(=O)NC(C)c3nnc(C(F)(F)F)s3)c2)s1` (single isomer, unassigned) [Example 199]: the IC50 came to 1540 nM.
With `Cc1cnc(-c2cc(O[C@H]3CCOC3)cc(C(=O)NC(C)c3nnc(C(F)(F)F)s3)c2)s1` (single isomer, unassigned) [Example 200], the IC50 turned out to be 30 nM.
The same measure, in the same setting: as for `Cc1cnc(-c2cc(OC3CCOCC3)cc(C(=O)NC(C)c3nnc(C(F)(F)F)s3)c2)s1` (single isomer, unassigned) [Example 196, 3-(5-methyl-1,3-thiazol-2-yl)-5-(tetrahydro-2H-pyran-4-yloxy)-N-{1-[5-(trifluoromethyl)-1,3,4-thiadiazol-2-yl]ethyl}benzamide], the figure is 19 nM.
Same read-out and setting: with `Cc1cnc(-c2cc(OCC3(C)CCOC3)cc(C(=O)N[C@H](C)c3cnc(C(F)(F)F)nc3)c2)s1` (single isomer, unassigned) [Example 333] the figure was 4 nM; with `Cc1cnc(-c2cc(OCC3(C)CCCO3)cc(C(=O)N[C@H](C)c3cnc(C(F)(F)F)nc3)c2)s1` (single isomer, unassigned) [Example 331], 7 nM; with `Cc1cnc(-c2cc(OC3CCOCC3)cc(C(=O)NC(C)c3nnc(C(F)(F)F)s3)c2)s1` (single isomer, unassigned) [Example 195, 3-(5-methyl-1,3-thiazol-2-yl)-5-(tetrahydro-2H-pyran-4-yloxy)-N-{1-[5-(trifluoromethyl)-1,3,4-thiadiazol-2-yl]ethyl}benzamide], 380 nM.
Still for that read-out and setting: as for `Cc1cnc(-c2cc(OC(C)C(C)O)cc(C(=O)N[C@H](C)c3ccc(C(F)(F)F)nn3)c2)s1` (single isomer, unassigned) [Example 183], the figure is 7 nM; as for `Cc1cnc(-c2cc(OC3CCC(=O)N(C)C3)cc(C(=O)N[C@H](C)c3cnc(C(F)(F)F)nc3)c2)s1` (single isomer, unassigned) [Example 337], 13 nM; as for `Cc1cnc(-c2cc(OC3CCCNC3)cc(C(=O)N[C@H](C)c3cnc(C(F)(F)F)nc3)c2)s1` (single isomer, unassigned) [Example 206], 31 nM.
In the case of `Cc1cnc(-c2cc(OC(C)C(C)O)cc(C(=O)N[C@H](C)c3ccc(C(F)(F)F)nn3)c2)s1` (single isomer, unassigned) [Example 230], the IC50 came to 2 nM.
Regarding `Cc1cnc(-c2cc(OC3CCCNC3)cc(C(=O)N[C@H](C)c3cnc(C(F)(F)F)nc3)c2)s1` (single isomer, unassigned) [Example 205], the IC50 worked out at 4 nM.

The same assay, now with this note: read-out: hP2X3 IC50.
As for `Cc1cnc(-c2cc(OC(C)C(C)O)cc(C(=O)N[C@H](C)c3cnc(C(F)(F)F)nc3)c2)s1` (single isomer, unassigned) [Example 163], the IC50 stood at 5 nM.
Still for that read-out and setting: as for `CCc1cnc(-c2cc(OC[C@H]3CCOC3)cc(C(=O)N[C@H](C)c3ccc(C)nn3)c2)s1` [Example 276, 3-(5-ethyl-1,3-thiazol-2-yl)-N-[(1R)-1-(6-methylpyridazin-3-yl)ethyl]-5-[(3S)-tetrahydrofuran-3-ylmethoxy]benzamide], the figure is 10 nM.

The assay is the same for the next values; noted with them: read-out: hP2X3 IC50; human P2X3, FLIPR calcium assay, agonist α,β-Me-ATP.
Regarding `Cc1cnc(-c2cc(OCC3CC3)cc(C(=O)N[C@H](C)c3cnc(C(F)(F)F)nc3)c2)s1` [Example 1, 3-(Cyclopropylmethoxy)-5-(5-methyl-1,3-thiazol-2-yl)-N-{(1R)-1-[2-(trifluoromethyl)pyrimidin-5-yl]ethyl}benzamide], the IC50 worked out at 4 nM.
In the case of `Cc1cnc(-c2cc(OC(C)C(C)O)cc(C(=O)N[C@H](C)c3cnc(C(F)(F)F)nc3)c2)s1` (stereo partly drawn) [Example 338, 3-[(3-hydroxybutan-2-yl)oxy]-5-(5-methyl-1,3-thiazol-2-yl)-N-{(1R)-1-[2-(trifluoromethyl)pyrimidin-5-yl]ethyl}benzamide], the IC50 amounted to 4 nM.

Another assay has as its target human P2X2/3 receptor (Homo sapiens (Human), UniProt P56373+Q9UBL9). Nature of the assay: Intracellular calcium measurement (FLIPR, Fluo-4) of antagonist activity at human P2X2/3 receptors. It is filed as cell-based. The settings on record: hP2X2/3 IC50 (nM). For orientation: A change in cytosolic calcium serves as a functional read-out for many receptors and channels.
In the case of `Cc1cnc(-c2cc(OC[C@@H]3CCCO3)cc(C(=O)NCc3ncc(Cl)cc3F)c2)s1` [Example 55, N-[(5-Chloro-3-fluoropyridin-2-yl)methyl]-3-(5-methyl-1,3-thiazol-2-yl)-5-[(2S)-tetrahydrofuran-2-ylmethoxy]benzamide], the IC50 amounted to 325 nM.

Staying with this assay, now noted: human P2X2/3, FLIPR calcium assay, agonist α,β-Me-ATP; read-out: hP2X2/3 IC50.
Regarding `Cc1cnc(-c2cc(O[C@H]3CCOC3)cc(C(=O)NC(C)c3nnc(C(F)(F)F)s3)c2)s1` (single isomer, unassigned) [Example 199], the IC50 was no less than 10000 nM.
As for `Cc1cnc(-c2cc(OC(C)C(C)O)cc(C(=O)N[C@H](C)c3cnc(C(F)(F)F)nc3)c2)s1` (stereo partly drawn) [Example 338, 3-[(3-hydroxybutan-2-yl)oxy]-5-(5-methyl-1,3-thiazol-2-yl)-N-{(1R)-1-[2-(trifluoromethyl)pyrimidin-5-yl]ethyl}benzamide], the IC50 came to 72 nM.
The same measure, in the same setting: with `Cc1cnc(-c2cc(OC(C)C(C)O)cc(C(=O)N[C@H](C)c3cnc(C(F)(F)F)nc3)c2)s1` (single isomer, unassigned) [Example 163] the figure was 83 nM.
The same measure, in the same setting: with `Cc1cnc(-c2cc(O[C@H]3CCOC3)cc(C(=O)NC(C)c3nnc(C(F)(F)F)s3)c2)s1` (single isomer, unassigned) [Example 200] the figure was 546 nM; with `Cc1cnc(-c2cc(OCC3(C)CCCO3)cc(C(=O)N[C@H](C)c3cnc(C(F)(F)F)nc3)c2)s1` (stereo partly drawn) [Example 329, 3-[(2-methyltetrahydrofuran-2-yl)methoxy]-5-(5-methyl-1,3-thiazol-2-yl)-N-{(1R)-1-[2-(trifluoromethyl)pyrimidin-5-yl]ethyl}benzamide], 120 nM.
Same read-out and setting: with `Cc1cnc(-c2cc(OC3C4COCC3CN(C)C4)cc(C(=O)N[C@H](C)c3cnc(C(F)(F)F)nc3)c2)s1` (stereo partly drawn) [Example 341, 3-[(7-methyl-3-oxa-7-azabicyclo[3.3.1]non-9-yl)oxy]-5-(5-methyl-1,3-thiazol-2-yl)-N-{(1R)-1-[2-(trifluoromethyl)pyrimidin-5-yl]ethyl}benzamide] the figure was 1240 nM; with `Cc1cnc(-c2cc(OCC34CNC(CO3)C4)cc(C(=O)N[C@H](C)c3cnc(C(F)(F)F)nc3)c2)s1` (stereo partly drawn) [Example 407, 3-(5-Methyl-1,3-thiazol-2-yl)-5-[2-oxa-5-azabicyclo[2.2.1]hept-1-ylmethoxy]-N-{(1R)-1-[2-(trifluoromethyl)pyrimidin-5-yl]ethyl}benzamide], 1680 nM.
For the molecule `CCc1cnc(-c2cc(OC[C@H]3CCOC3)cc(C(=O)N[C@H](C)c3ccc(C(F)(F)F)nn3)c2)s1` [Example 296, 3-(5-ethyl-1,3-thiazol-2-yl)-5-[(3S)-tetrahydrofuran-3-ylmethoxy]-N-{(1R)-1-[6-(trifluoromethyl)pyridazin-3-yl]ethyl}benzamide], the IC50 is 133 nM.
Consider `Cc1cnc(-c2cc(OC[C@@H]3CN(C(=O)OC(C)(C)C)CCO3)cc(C(=O)N[C@H](C)c3cnc(C(F)(F)F)nc3)c2)s1` [Example 349, Tert-butyl (2S)-2-{[3-(5-methyl-1,3-thiazol-2-yl)-5-({(1R)-1-[2-(trifluoromethyl)pyrimidin-5-yl]ethyl}carbamoyl)phenoxy]methyl}morpholine-4-carboxylate], for which the IC50 turned out to be 545 nM.
On the same count and under the same terms, as for `Cc1cnc(-c2cc(OC[C@H]3CN(C(=O)OC(C)(C)C)CCO3)cc(C(=O)N[C@@H](C)c3cnc(C(F)(F)F)nc3)c2)s1` [Example 412, tert-butyl (2R)-2-{[3-(5-methyl-1,3-thiazol-2-yl)-5-({(1S)-1-[2-(trifluoromethyl)pyrimidin-5-yl]ethyl}carbamoyl)phenoxy]methyl}morpholine-4-carboxylate], the figure is no less than 10000 nM; as for `CCc1cnc(-c2cc(OC[C@@H]3CCOC3)cc(C(=O)N[C@H](C)c3ccc(C(F)(F)F)nn3)c2)s1` [Example 292, 3-(5-ethyl-1,3-thiazol-2-yl)-5-[(3R)-tetrahydrofuran-3-ylmethoxy]-N-{(1R)-1-[6-(trifluoromethyl)pyridazin-3-yl]ethyl}benzamide], 52 nM.
